scFv variants of Ab-14 (light chain) against a SARS-CoV-2 spike peptide

Target peptide (SARS-CoV-2 spike, HR2 region): PDVDLGDISGINAS

Ab-14 is the parent antibody, in scFv form: VH, then a (GGGGS)3 linker, then VL. The heavy chain is unchanged in all variants.
VH: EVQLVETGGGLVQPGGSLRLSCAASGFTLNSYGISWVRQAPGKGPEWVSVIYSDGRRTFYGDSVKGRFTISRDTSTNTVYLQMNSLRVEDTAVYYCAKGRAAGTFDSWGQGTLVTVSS
VL: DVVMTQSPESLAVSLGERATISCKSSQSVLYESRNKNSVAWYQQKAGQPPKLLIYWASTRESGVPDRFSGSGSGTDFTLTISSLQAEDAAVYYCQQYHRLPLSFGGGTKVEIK

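Phage display of a naive human antibody library on the peptide gave the parent. Designed CDR sequences, proposed from the first random library and measured here. Several design methods are mixed in this list. In AlphaSeq, yeast of one mating type display the scFv and yeast of the other type display the target. Mating (16 h, 30 °C) was followed by selection of diploids and sequencing of their barcodes. The ratio of observed to expected reads was calibrated, replicate by replicate, on BCL2-family standards whose Kd was known from biolayer interferometry. Mating was done six times.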

The parent's light chain CDRs are KSSQSVLYESRNKNSVA, WASTRES, QQYHRLPLS; each variant's own CDRs replace them letter for letter.
Kd is apparent (estimated from mating counts) and averaged on the log scale over replicates with a signal. Smaller is tighter.
Where no diploid with the target was found in any replicate, the entry reads "nd": below detection, most likely a poor binder, though not proof of it.

apparent Kd,replicates with signal,CDR-L1,CDR-L2,CDR-L3
2.3 nM,6 of 6,LSSQSDLYESRNKNSVA,NASTRES,QQYHRLPLM
26 nM,1 of 6,KCYQSVLYETRNKNSVA,WASTRES,QQYHRLPLS
nd,0 of 6,KSSQSVLYESQNKNSVA,AASTRES,QQQHQLPLS
42 nM,6 of 6,KFSQSVLYESRNKNSVA,MASYRES,QQYHRLPLS
1.5 nM,6 of 6,FLSQSWLYESRNKNSVA,NASTRMS,QQYHRLPLS
4.9 nM,6 of 6,KSSQSQRYESRNKNSVA,GASTRES,QQYHRLPLS
690 pM,6 of 6,KLSQSNLYESRNKNSVA,QASTRES,QQYHRLPLS
2.3 nM,6 of 6,KNSQSWLYESRNFNSVA,GASTRES,QQYHRLPLS
2.1 nM,6 of 6,KLDQSQLYESRNKNSVA,NASTRES,QQYHRLPLS
2.1 nM,2 of 6,TLGQSTMVEQYNKNSVA,QASTREE,QDYHRLPLS
5.8 nM,6 of 6,HVAQTRQEDINNKKSVA,EGSVVID,QQYSKLPFS
6.9 nM,6 of 6,KLSQSGLYGMRNKMSVA,QASQRES,QQYHRLPLS
nd,0 of 6,KWSISVLHESRNKNSVA,WASTRES,QQYHRMPLS
15 nM,6 of 6,KFKELFNMWARAHGNVA,DADERNV,QQYSRLPIS
610 pM,6 of 6,KMSQSVLWESRNKNSVA,DASTRES,QQYHRLPLS
610 pM,6 of 6,KSSQSELYESRNKNSVA,EASTRES,QQYHRLPLS
620 pM,6 of 6,KLSQSQGYESRNKNSVA,NASQRES,QQYHRLPLS
nd,0 of 6,KSSQSVLYEGRNKNSVA,AASNRES,QQYHRLPNS
11 nM,6 of 6,KLEQLVLYESRNKNSVA,GASTRES,QQYHRLPLS
280 pM,6 of 6,KLSQSVLYESRNWNNVA,DASTRES,QQYHRLPLS
53 nM,2 of 6,HMSALTLMGSRNRNSVA,QMTTREN,QQYDRLPLS
12 nM,6 of 6,KISQMQRVGATHSNSIA,EEVTRAK,QQYHRLPLA
180 pM,6 of 6,KLGGVTSYEMQNKNSVA,QMTTRES,QQYHRLPLS
1.2 nM,6 of 6,KLSQSVLYERRNKNSVA,EASTRES,QQYFRLPLS
2.4 nM,6 of 6,KIGSGTNGEKFQSNSVA,QTSTREE,QQYHRLPLS
1.0 nM,6 of 6,KLSQSFLYESRNKNSVA,NASTREM,QQYHRLPLS
4.3 nM,6 of 6,KLSGSMLYEQRMKNSVA,QASQRLS,QDYHRLPLS
2.0 nM,6 of 6,KFEQSQLYESRNKNSVA,NASTRES,QQYHRLPLS
12 nM,6 of 6,KISMLTMYESVAKNNIA,EMTTRPE,QSYHRLPLS
9.4 nM,6 of 6,MMSQVTGLGTRHRNNVA,QTETREP,QQYDRLPLI
nd,0 of 6,MISQSFLIGSFAKNSVA,QTSTRES,QQYDRLPLS
nd,0 of 6,IVSQLMLWGMHAKNSIA,EAQTRLN,QQYERLPLF
76 nM,6 of 6,KLWAYLQGLESNMQNVA,DGIYRST,QQYDRLPLS
5.0 nM,6 of 6,KSSQSFLYESRNKNSVA,GASTRES,QCYHRLPLS
3.0 nM,6 of 6,KLMQSQLYESRNKNSVA,NASQRLS,QQYHRLPLS
120 nM,5 of 6,MISQIYNMGTFAINSVA,QASLRND,QQYDRLPLM
2.0 nM,6 of 6,KSSGSVLGEDWNKNSVA,NASKRES,QQYHRLPLS
5.4 nM,6 of 6,AVSIQHMENTAIWNAIA,DTSLRNH,QQYYHLPLS
3.1 nM,6 of 6,HLELEEMQMMKDHNSIA,DTESKTR,QQYFRLPIS
270 nM,3 of 6,MLTDVARGLTRKEDSVA,DNSTRES,QQYDRLPLS
770 pM,6 of 6,KLDQSELYESRNKNSVA,NASTRMS,QQYHRLPLS
6.1 nM,6 of 6,IVNGVLDHLSKNTNNVA,ETSTRNS,QQYDRLPLS
2.2 nM,6 of 6,KLSMSQLYESRNKNNVA,SASHREH,QQYHRLPLS
16 nM,6 of 6,KIGMTLNTLMHQKNNVA,DLVVREN,QQYHRLPLS
880 pM,6 of 6,KFSQSVLYESRTKNSVA,NAVTREA,QQYHRLPLS
380 nM,1 of 6,TLHMVTEGMRRKHNSVA,DNSTRED,QQYDRLPLS
8.4 nM,3 of 6,GVDHTMYSAQEAPNSIA,NAEQTNI,QQYARLPLS
nd,0 of 6,FMEMDFQENSGNHNSVA,SEEVKTR,QHYGRLPLS
1.9 nM,6 of 6,KVSQSHLYESRMKNSVA,NASTRES,QQYHRLPLS
1.8 nM,6 of 6,TISQHAQMESHNKNSVA,DLNVRGS,QQYDRLPLS
1.1 nM,6 of 6,KVQQKNLYESRMKNSVA,NASLRES,QQYHRLPLS
nd,0 of 6,KSSQSEWYESRNKNSVA,WASTRES,QQYHRLPLS
470 pM,6 of 6,KLSQLVLMEQRNHNSVA,SANTREE,QQYHRLPLS
5.5 nM,1 of 6,LSSRWVLYESRNKNSVA,RASTRES,QQYHRLPLS
2.7 nM,6 of 6,KVQQSQLYESRNKNSVA,NASQRES,QQYHRLPLS
4.6 nM,3 of 6,KMSQSVLYESRFKNSVA,WASTRES,QQYHRLPLS
480 pM,6 of 6,MISDLTMYGSRNKNSVA,DLSERGS,QQYHRLPLS
4.2 nM,6 of 6,KFSQSWLYESRNKNSVA,GASTRES,QQYHRLPLS
4.0 nM,6 of 6,KIDENTFHGANRQNNIA,ESRTVGA,QQYFRLPII
140 nM,2 of 6,KSSQGVLTESRNKNSVA,WASIREY,QQPHRLPLS
3.0 nM,6 of 6,KLSQSELYESRNCNSVA,NASQRES,QQYHRLPLS
2.2 nM,6 of 6,KISQSWNYESRNKNSVA,GASTRES,QQYHRLPLS
3.6 nM,6 of 6,KSSNSYLYESENKNSVA,EASQRES,QQYHRLPLS
1.1 nM,6 of 6,KVSPSQEYESRNKQSVA,HASLREE,QQYHRLPLS
6.4 nM,6 of 6,KVSSFMRGLMMRKDSIA,DNETRSN,QQYDRLPLS
770 pM,6 of 6,KLSQSELYESRNKMSVA,NASTRES,QQYHRLPLS
4.9 nM,6 of 6,TISQMTSLFSQKINNVA,EVSMREE,QQYDRLPLI
2.8 nM,6 of 6,KSPQSVLYESRNKNSVA,SASTRQS,QQYHRLPLS
150 nM,6 of 6,KLSCSMEYESRNKNSVA,NASTREE,QQYHRLPLT
300 nM,3 of 6,RITEQYFEYMHNINNVA,EAECKQY,QQYAHLPLL
690 pM,6 of 6,KLQQSHLYESRNKNSVA,NASYRES,QQYHRLPLS
13 nM,6 of 6,MMSQVTGQGQRHRNNVA,QTSTREP,QQYDRLPLI
230 nM,1 of 6,TISQSFMMENQFKNSVA,QASTREH,QCYDRLPLS
130 nM,2 of 6,KSSQSVLFESRNMNSVA,WASTRES,QQYHRLPLS
910 pM,6 of 6,KYSQEVPEESRNKNSVA,NASTREE,QQYHRLPLS

For reference, 4 entries of the list once more:

CDR-L1,CDR-L2,CDR-L3,apparent Kd,replicates with signal
KLSQSNLYESRNKNSVA,QASTRES,QQYHRLPLS,690 pM,6 of 6
LSSQSDLYESRNKNSVA,NASTRES,QQYHRLPLM,2.3 nM,6 of 6
IVNGVLDHLSKNTNNVA,ETSTRNS,QQYDRLPLS,6.1 nM,6 of 6
KSSQSELYESRNKNSVA,EASTRES,QQYHRLPLS,610 pM,6 of 6

A sequence measured in both rounds can read differently, since the two assays cover different ranges.
In the paper, a design with two or fewer of six values counts as a poor binder.
The parent sequence was in this pool as ten entries: three were never detected, three once, and four in most replicates, with averages from 2.2 nM to 240 nM.
Three control strains display no target. For all light chain designs, 4% of the pairings with them gave a signal, with a median of 430 nM and one signal in twenty below 38 nM, so weak values seen in few replicates may be background.

From the AlphaSeq antibody data of Li et al. 2023 (doi:10.1038/s41467-023-39022-2), copy in the FLAb collection.